Values quoted from earlier work, collected in PMC3048909 (2011).

Chains of the proteins cited; added tags and fusions are not shown.
UniProt P31645, whole entry: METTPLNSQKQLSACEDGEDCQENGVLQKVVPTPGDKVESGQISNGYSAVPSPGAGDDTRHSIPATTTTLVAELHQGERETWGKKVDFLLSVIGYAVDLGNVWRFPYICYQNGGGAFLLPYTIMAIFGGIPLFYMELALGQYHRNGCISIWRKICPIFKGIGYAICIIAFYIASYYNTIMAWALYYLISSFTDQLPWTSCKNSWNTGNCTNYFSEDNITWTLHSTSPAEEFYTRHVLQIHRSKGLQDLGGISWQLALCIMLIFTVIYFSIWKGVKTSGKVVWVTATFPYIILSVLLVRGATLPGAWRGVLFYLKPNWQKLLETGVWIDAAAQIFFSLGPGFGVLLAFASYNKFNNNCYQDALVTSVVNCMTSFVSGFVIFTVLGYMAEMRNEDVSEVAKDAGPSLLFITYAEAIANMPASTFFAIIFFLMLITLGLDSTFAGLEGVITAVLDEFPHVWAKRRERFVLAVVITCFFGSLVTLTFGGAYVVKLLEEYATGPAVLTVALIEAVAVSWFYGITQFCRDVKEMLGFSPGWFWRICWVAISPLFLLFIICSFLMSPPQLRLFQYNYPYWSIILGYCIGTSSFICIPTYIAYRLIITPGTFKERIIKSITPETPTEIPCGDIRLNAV

Target: human SERT (Homo sapiens, UniProt P31645)
Details: cited from earlier work

Compound	Monoamine Uptake Inhibition IC50 [3H]5HT
C[C@@H]1NC(C)(C)CO[C@@]1(O)c1cccc(Cl)c1 [(S,S)-4a, (S,S)-2-(3'-chlorophenyl)-3,5,5-trimethylmorpholine-2-ol]	inactive
C[C@H]1NC(C)(C)CO[C@]1(O)c1cccc(Cl)c1 [(R,R)-4a, (R,R)-2-(3'-chlorophenyl)-3,5,5-trimethylmorpholine-2-ol]	inactive
